{"source": "patent US20240269092A1", "about": "(priority 2021, published 2024)", "key": {"[1]": {"settings": "human, in vivo, iv"}, "[2]": {"test_system": "Chinese patients with advanced solid tumors", "settings": "in vivo"}}, "note": "Read-outs that look alike come from different tables or passages of the source."}
{"substance": "mitoxantrone hydrochloride liposome [Mit-Lipo]", "values": [{"measurement": "AUC0-t, free mitoxantrone", "setting": "[1]; 12 mg/m2", "value": "9.66 ± 4.08", "unit": "µg·h/mL"}, {"measurement": "AUC0-t, total mitoxantrone", "setting": "[1]; 12 mg/m2", "value": "1068.35 ± 408.37", "unit": "µg·h/mL"}, {"measurement": "AUC0-∞, free mitoxantrone", "setting": "[1]; 12 mg/m2", "value": "10.18 ± 4.34", "unit": "µg·h/mL"}, {"measurement": "AUC0-∞, total mitoxantrone", "setting": "[1]; 12 mg/m2", "value": 1089.74, "unit": "µg·h/mL"}, {"measurement": "Cmax, free mitoxantrone", "setting": "[1]; 12 mg/m2", "value": "51.57 ± 12.61", "unit": "ng/mL"}, {"measurement": "Cmax, total mitoxantrone", "setting": "[1]; 12 mg/m2", "value": "8890.00 ± 1158.65", "unit": "ng/mL"}, {"measurement": "t1/2, free mitoxantrone", "setting": "[1]; 12 mg/m2", "value": "125.82 ± 62.06", "unit": "h"}, {"measurement": "t1/2, total mitoxantrone", "setting": "[1]; 12 mg/m2", "value": "85.40 ± 28.53", "unit": "h"}, {"measurement": "AUC0-t, free mitoxantrone", "setting": "[1]; 16 mg/m2", "value": "11.74 ± 5.24", "unit": "µg·h/mL"}, {"measurement": "AUC0-t, total mitoxantrone", "setting": "[1]; 16 mg/m2", "value": "1175.28 ± 470.34", "unit": "µg·h/mL"}, {"measurement": "AUC0-∞, free mitoxantrone", "setting": "[1]; 16 mg/m2", "value": "12.46 ± 5.78", "unit": "µg·h/mL"}, {"measurement": "AUC0-∞, total mitoxantrone", "setting": "[1]; 16 mg/m2", "value": 1220.23, "unit": "µg·h/mL"}, {"measurement": "Cmax, free mitoxantrone", "setting": "[1]; 16 mg/m2", "value": "81.43 ± 15.31", "unit": "ng/mL"}, {"measurement": "Cmax, total mitoxantrone", "setting": "[1]; 16 mg/m2", "value": "11701.67 ± 1488.36", "unit": "ng/mL"}, {"measurement": "t1/2, free mitoxantrone", "setting": "[1]; 16 mg/m2", "value": "72.88 ± 18.77", "unit": "h"}, {"measurement": "t1/2, total mitoxantrone", "setting": "[1]; 16 mg/m2", "value": "68.78 ± 31.51", "unit": "h"}, {"measurement": "AUC0-t, free mitoxantrone", "setting": "[1]; 20 mg/m2", "value": "14.25 ± 6.44", "unit": "µg·h/mL"}, {"measurement": "AUC0-t, total mitoxantrone", "setting": "[1]; 20 mg/m2", "value": "1365.07 ± 214.17", "unit": "µg·h/mL"}, {"measurement": "AUC0-∞, free mitoxantrone", "setting": "[1]; 20 mg/m2", "value": "15.22 ± 6.14", "unit": "µg·h/mL"}, {"measurement": "AUC0-∞, total mitoxantrone", "setting": "[1]; 20 mg/m2", "value": 1435.18, "unit": "µg·h/mL"}, {"measurement": "dose limiting toxicity (DLT) events", "setting": "[2]", "value": "No dose limiting toxicity (DLT) events occurred"}]}
